The values that follow come from US20090208979A1, “Method for identifying antipsychotic drug candidates” (priority 2008, published 2009).

Like-named read-outs stand apart in the source and are kept apart here.

Assay [1] concerns GABAAβ3 mRNA. Conditions: rats, 14 days daily IP (haloperidol 1 mg/kg, fluvoxamine 10 mg/kg, clozapine 10 mg/kg); frontal cortex; vs control.
Assay [2] has as its system GABAAβ2/β3 subunit. Conditions: primary cortical neuronal cell cultures.

On to `COCCCC/C(=N\OCCN)c1ccc(C(F)(F)F)cc1` [fluvoxamine], for which the “GABAAβ3 mRNA level” value in assay [1] is “increased significantly”. For the same compound, the “increase of GABAAβ2/β3 subunit phosphorylation compared to controls” value (“increase” below) is recorded as “did not alter” in assay [2] (acute treatment, 15 minutes) and “did not alter” in assay [2] (chronic treatment, 7 days).

`CN1CCN(C2=Nc3cc(Cl)ccc3Nc3ccccc32)CC1` [clozapine]: the “increase” value in assay [2] (acute treatment, 15 minutes) was determined as 169%; in assay [2] (chronic treatment, 7 days), 37%.

On to `O=C(CCCN1CCC(O)(c2ccc(Cl)cc2)CC1)c1ccc(F)cc1` [haloperidol], for which, in assay [1], the “GABAAβ3 mRNA level” value is listed as “significantly increased”. Besides, the “increase” value is listed as “did not alter” in assay [2] (acute treatment, 15 minutes) and “did not alter” in assay [2] (chronic treatment, 7 days).
